What was measured:
Mus musculus [1] = organism: Mus musculus; conditions: CD1, 5 mg/kg
Mus musculus [2] = organism: Mus musculus; conditions: CD1, 5 mg/kg; remark: listed apart in the source
Mus musculus [3] = organism: Mus musculus; conditions: CD1, 5 mg/kg; remark: listed apart in the source
Mus musculus [4] = organism: Mus musculus; conditions: CD1, 5 mg/kg; remark: listed apart in the source
Mus musculus [5] = organism: Mus musculus; conditions: CD1, 5 mg/kg; remark: listed apart in the source
Mus musculus [6] = organism: Mus musculus; conditions: CD1, 5 mg/kg; remark: listed apart in the source
Mus musculus [7] = organism: Mus musculus; conditions: CD1, 0.1 mg/kg
Mus musculus [8] = organism: Mus musculus; conditions: CD1, 0.1 mg/kg; remark: listed apart in the source

| Compound | deltaT (Mus musculus [1]) [°C] | deltaT (Mus musculus [2]) [°C] | deltaT (Mus musculus [3]) [°C] | deltaT (Mus musculus [4]) [°C] | deltaT (Mus musculus [5]) [°C] | deltaT (Mus musculus [6]) [°C] | deltaT (Mus musculus [7]) [°C] | deltaT (Mus musculus [8]) [°C] |
| --- | --- | --- | --- | --- | --- | --- | --- | --- |
| CCCN(CCC)C1CCc2cccc(O)c2C1 (stereo not drawn) | -1.4 | -0.2 | -0.5 | -0.1 | -1.3 | -0.9 |  |  |
| COc1ccccc1N1CCN(CCN(C(=O)C2CCCCC2)c2ccccn2)CC1 |  |  |  |  |  |  | -0.2 | -0.2 |
